How the values were obtained:
RTN3 mRNA = assay: qRT-PCR of RTN3 mRNA in treated cells; assay type: cell-based, human; conditions: 6 μM PS1097 or 15 μM SOF, 48 h, relative to GAPDH
RTN3 = assay: Western blot of ER proteins in Huh-7 cells: RTN3; conditions: 6 μM PS1097 or 15 μM SOF, 48 h

CC(C)OC(=O)[C@H](C)N[P@](=O)(OC[C@H]1O[C@@H](n2ccc(=O)[nH]c2=O)[C@](C)(F)[C@@H]1O)Oc1ccccc1 [SOF, Sofosbuvir, reference compound]
Reduction in RTN3 mRNA (qRT-PCR) (RTN3 mRNA): roughly 25% | RTN3 protein content (western blot) (RTN3): did not affect

O=c1[nH]c2cc3cccnc3c(Cl)c2nc1-c1cccs1 [PS1097, 5‐chloro‐3‐(thiophen‐2‐yl) pyrido[2,3‐g] quinoxalin‐2(1H)‐one]
Reduction in RTN3 mRNA (qRT-PCR) (RTN3 mRNA): approximately 50% | RTN3 protein content (western blot) (RTN3): significant decrease

— paper PMC12445440 (Journal of Medical Virology, 2025)
